These are literature values, as cited in publication PMC5684876.

Sequences of proteins named here, by UniProt entry; tags and fusion partners are left off.
UniProt P40337, whole entry: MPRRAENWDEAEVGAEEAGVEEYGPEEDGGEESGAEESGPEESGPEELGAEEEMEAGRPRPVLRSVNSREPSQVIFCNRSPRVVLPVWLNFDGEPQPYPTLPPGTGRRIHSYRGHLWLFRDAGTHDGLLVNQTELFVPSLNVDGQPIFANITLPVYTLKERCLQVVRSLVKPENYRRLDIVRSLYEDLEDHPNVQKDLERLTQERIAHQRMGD
UniProt Q16665, whole entry: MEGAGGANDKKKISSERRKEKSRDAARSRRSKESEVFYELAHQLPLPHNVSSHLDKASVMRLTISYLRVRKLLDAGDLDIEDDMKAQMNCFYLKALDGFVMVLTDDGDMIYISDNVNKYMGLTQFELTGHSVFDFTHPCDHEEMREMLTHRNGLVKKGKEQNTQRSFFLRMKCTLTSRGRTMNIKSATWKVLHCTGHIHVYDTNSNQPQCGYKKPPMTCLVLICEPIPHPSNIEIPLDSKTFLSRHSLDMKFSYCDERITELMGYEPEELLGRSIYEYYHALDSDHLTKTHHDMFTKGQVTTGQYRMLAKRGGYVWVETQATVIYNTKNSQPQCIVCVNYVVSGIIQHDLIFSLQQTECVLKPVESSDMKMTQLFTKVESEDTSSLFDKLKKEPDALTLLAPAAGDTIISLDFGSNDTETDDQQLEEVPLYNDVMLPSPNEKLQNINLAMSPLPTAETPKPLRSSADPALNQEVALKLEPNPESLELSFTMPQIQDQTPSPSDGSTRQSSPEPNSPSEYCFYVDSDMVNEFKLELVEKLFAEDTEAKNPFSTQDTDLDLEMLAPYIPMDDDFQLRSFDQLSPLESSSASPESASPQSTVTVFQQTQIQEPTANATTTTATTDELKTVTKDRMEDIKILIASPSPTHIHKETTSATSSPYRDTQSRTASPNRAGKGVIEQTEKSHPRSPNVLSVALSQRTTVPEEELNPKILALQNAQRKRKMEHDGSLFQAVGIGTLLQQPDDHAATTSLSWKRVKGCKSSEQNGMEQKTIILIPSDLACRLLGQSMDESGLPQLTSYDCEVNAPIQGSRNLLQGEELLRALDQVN

The data set concerns the target VHL (Homo sapiens) (UniProt P40337).

What is called Kd is the constant that tells how readily two partners part at equilibrium. Take “HIF1α 10-mer fragment (from UniProt Q16665)”: the Kd is 200 nM.
